This is an account of results in ChEMBL document CHEMBL1140924, “Biomedical application of orexin/hypocretin receptor ligands in neuroscience” (J Med Chem, 2009).

By UniProt entry, the sequences of proteins in these tests, tags left out.
UniProt O43613, whole entry: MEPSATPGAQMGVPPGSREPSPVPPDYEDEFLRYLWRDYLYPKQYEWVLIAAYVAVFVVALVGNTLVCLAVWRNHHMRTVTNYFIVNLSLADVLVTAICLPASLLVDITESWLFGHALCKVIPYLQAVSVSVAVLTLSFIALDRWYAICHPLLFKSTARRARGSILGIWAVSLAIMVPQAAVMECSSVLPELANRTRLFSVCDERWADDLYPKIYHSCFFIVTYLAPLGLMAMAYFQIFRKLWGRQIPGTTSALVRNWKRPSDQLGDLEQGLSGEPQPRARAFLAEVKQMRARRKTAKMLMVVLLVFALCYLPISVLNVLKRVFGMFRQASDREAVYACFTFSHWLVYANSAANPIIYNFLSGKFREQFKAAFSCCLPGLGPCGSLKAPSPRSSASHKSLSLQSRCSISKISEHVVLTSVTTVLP

This test deals with Orexin/Hypocretin receptor type 1 (Homo sapiens, UniProt O43613). The experiment in a line: Inhibition of OX1 receptor.

By IC50 is commonly meant the concentration needed to halve the response being measured. A high value points to weaker potency. `CNC(=O)[C@@H](c1ccccc1)N1CCc2cc(OC)c(OC)cc2[C@@H]1CCc1ccc(C(F)(F)F)cc1` [ALMOREXANT]: the IC50 is 13 nM.
